Format in all cases: biochemical
Assay [1] has as its target PDE5A1 (Homo sapiens (Human), UniProt O76074). The assay is described as follows: In vitro enzyme assay, PDE5. Conditions: PDE5A, 500 nM cGMP.
Assay [2] concerns the target PDE8A (Homo sapiens (Human), UniProt O60658). The assay can be described thus: In vitro enzyme assay, PDE8. Conditions: 10 nM cAMP.
For assay [3], the target named is PDE7A (Homo sapiens (Human), UniProt Q13946). The assay is described as follows: In vitro enzyme assay, PDE7. Conditions: 15 nM cAMP.

The chains behind the UniProt entries cited, without tags or fusion partners. Where a name states a change or a piece, a line headed by the entry shows the natural chain unless it says otherwise.
UniProt O60658: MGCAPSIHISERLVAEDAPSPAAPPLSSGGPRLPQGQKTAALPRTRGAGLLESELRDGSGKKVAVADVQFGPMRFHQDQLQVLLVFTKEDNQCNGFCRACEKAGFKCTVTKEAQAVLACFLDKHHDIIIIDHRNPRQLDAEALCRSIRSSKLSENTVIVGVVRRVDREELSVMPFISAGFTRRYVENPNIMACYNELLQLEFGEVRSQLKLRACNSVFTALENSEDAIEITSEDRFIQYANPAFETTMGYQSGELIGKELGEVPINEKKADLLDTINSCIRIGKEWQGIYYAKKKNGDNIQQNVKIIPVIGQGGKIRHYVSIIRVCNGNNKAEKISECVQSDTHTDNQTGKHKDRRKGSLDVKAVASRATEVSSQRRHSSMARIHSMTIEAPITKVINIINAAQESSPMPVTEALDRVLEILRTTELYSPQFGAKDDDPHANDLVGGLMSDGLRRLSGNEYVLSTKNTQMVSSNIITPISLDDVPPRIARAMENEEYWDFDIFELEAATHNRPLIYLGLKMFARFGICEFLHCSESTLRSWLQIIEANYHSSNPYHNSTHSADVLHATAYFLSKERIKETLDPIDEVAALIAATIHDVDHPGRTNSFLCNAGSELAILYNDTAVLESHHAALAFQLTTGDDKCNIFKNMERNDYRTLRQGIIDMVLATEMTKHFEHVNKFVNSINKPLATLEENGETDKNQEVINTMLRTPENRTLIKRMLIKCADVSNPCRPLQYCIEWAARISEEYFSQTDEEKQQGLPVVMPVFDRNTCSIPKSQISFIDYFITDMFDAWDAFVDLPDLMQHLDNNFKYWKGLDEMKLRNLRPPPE
UniProt Q13946: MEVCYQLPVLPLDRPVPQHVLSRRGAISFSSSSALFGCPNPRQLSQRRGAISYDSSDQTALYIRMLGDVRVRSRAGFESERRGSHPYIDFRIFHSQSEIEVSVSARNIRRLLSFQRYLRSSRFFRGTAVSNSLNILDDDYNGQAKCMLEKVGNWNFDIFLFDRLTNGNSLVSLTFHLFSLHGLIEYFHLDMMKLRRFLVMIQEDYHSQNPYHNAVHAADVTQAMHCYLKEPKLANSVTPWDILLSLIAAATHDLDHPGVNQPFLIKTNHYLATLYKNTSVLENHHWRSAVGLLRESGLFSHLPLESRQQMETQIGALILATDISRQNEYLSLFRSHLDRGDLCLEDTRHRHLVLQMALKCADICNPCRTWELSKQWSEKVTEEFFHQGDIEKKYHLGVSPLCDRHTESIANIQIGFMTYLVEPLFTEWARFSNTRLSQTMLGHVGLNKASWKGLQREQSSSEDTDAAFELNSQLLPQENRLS

Regarding `O=c1nc2sc3ccccc3n2c(=O)n1-c1ccccc1` [BC11-19], the IC50 in assay [1] and in assay [2] was > 100 µM in each case. In the case of `Cc1ccccc1Nc1ncnc2c1c(-c1ccccc1)cn2-c1ccc(F)cc1` [BC11-28], the IC50 in assay [3] is > 100 µM. On to `CCCSc1nc2c(c(=O)n1-c1ccccc1)SCC2` [BC11-38], for which the IC50 in assay [1] and in assay [2] was > 100 µM each time.

As a reminder, the IC50 is the concentration at which inhibition is half-maximal. Low readings indicate higher potency, high ones lower potency.

Values taken from patent US9173884B2, “Inhibitors of phosphodiesterase 11 (PDE11)” (TRUSTEES OF BOSTON COLLEGE, priority 2011, dated 2015).
